In one assay the target is [3H]-dopamine reuptake (Rattus norvegicus, UniProt P23977). The assay is described as follows: In vitro functional inhibition of [3H]-dopamine reuptake, striatum synaptosomes. The format is biochemical. The settings on record: read-out: Dopamine inhibition pIC50 (converted).
The target of assay [1] is [3H]-norepinephrine reuptake (Rattus norvegicus, UniProt Q63380). The assay is described as follows: In vitro functional inhibition of [3H]-norepinephrine reuptake, hypothalamus synaptosomes. The format is biochemical. The conditions noted are these: read-out: Noradrenaline inhibition pIC50 (converted).
In another assay the target is dopamine reuptake sites (Homo sapiens, UniProt Q01959). The assay is described as follows: In vitro affinity for dopamine reuptake sites. The conditions noted are these: read-out: Dopamine binding pKi (converted).
Assay [2] concerns the target norepinephrine reuptake sites (Homo sapiens, UniProt P23975). The assay is described as follows: In vitro affinity for norepinephrine reuptake sites. The settings on record: read-out: Noradrenaline binding pKi (converted).
Another assay addresses serotonin reuptake sites (Homo sapiens, UniProt P31645). The assay is described as follows: In vitro affinity for serotonin reuptake sites.

Chains of the proteins cited; added tags and fusions are not shown. Residues count along the entry.
UniProt P23977, whole entry: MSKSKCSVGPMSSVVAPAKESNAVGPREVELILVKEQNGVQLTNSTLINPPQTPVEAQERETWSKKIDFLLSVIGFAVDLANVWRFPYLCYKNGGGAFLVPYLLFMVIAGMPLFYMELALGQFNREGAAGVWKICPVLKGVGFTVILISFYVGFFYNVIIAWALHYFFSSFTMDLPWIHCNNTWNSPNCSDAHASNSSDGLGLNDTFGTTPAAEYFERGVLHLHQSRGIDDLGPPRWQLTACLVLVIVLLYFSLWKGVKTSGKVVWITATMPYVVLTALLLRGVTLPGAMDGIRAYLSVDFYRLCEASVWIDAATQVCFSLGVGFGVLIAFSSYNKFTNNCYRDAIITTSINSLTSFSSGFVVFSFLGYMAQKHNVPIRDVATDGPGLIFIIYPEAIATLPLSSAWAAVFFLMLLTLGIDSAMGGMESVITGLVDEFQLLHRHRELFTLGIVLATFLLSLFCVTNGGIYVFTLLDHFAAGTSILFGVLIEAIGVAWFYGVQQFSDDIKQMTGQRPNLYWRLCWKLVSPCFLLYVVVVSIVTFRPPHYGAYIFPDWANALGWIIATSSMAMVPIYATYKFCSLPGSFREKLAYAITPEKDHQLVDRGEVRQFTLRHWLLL
UniProt Q63380, 1-617: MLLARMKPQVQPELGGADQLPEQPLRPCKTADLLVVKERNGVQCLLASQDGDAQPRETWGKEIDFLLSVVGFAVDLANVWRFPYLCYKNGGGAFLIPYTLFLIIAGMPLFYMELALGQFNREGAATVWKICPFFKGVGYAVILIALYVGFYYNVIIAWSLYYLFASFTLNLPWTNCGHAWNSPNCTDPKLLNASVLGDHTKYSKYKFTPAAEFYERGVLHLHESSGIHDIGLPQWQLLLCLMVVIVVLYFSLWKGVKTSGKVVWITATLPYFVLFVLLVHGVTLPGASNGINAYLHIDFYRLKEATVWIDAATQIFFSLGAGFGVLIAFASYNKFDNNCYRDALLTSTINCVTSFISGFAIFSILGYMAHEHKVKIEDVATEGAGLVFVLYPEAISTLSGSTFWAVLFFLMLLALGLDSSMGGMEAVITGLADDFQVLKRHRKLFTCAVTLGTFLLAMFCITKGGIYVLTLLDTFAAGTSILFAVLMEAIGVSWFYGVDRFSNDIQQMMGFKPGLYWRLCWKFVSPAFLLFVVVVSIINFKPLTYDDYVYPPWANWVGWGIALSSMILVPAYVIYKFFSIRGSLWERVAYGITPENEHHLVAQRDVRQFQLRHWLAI
UniProt Q01959, whole entry: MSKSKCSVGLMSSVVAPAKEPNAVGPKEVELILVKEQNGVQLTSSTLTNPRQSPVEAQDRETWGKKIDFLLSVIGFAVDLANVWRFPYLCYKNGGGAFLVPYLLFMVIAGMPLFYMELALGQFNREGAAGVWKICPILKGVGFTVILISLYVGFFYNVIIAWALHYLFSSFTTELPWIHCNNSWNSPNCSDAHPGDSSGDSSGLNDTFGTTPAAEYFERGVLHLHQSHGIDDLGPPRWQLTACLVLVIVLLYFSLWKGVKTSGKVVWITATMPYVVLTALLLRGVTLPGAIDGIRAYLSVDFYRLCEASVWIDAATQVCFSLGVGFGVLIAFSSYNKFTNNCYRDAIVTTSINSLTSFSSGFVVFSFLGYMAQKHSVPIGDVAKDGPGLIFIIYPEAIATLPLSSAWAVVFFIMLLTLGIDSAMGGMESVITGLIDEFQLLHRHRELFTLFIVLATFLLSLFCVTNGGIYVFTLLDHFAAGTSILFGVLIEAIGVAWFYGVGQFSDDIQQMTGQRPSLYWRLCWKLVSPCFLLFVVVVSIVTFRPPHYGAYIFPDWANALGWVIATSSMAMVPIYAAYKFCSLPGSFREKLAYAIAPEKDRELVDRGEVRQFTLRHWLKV
UniProt P23975, whole entry: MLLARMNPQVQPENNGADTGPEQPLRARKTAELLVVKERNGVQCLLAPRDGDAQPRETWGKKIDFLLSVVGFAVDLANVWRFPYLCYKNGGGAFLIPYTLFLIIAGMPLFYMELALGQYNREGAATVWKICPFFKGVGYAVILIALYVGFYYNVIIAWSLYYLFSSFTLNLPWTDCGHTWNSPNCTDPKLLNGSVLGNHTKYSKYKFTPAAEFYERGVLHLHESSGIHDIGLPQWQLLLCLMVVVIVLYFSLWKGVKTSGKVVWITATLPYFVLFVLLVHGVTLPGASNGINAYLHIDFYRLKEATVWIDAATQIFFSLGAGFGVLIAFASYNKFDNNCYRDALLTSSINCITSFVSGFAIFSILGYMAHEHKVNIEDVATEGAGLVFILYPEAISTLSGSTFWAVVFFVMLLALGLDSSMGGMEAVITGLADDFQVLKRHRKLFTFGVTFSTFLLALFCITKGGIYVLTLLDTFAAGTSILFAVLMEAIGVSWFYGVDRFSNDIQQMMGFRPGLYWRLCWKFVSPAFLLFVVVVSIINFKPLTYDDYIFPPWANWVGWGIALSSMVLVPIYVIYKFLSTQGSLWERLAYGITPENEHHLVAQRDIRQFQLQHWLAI
UniProt P31645, whole entry: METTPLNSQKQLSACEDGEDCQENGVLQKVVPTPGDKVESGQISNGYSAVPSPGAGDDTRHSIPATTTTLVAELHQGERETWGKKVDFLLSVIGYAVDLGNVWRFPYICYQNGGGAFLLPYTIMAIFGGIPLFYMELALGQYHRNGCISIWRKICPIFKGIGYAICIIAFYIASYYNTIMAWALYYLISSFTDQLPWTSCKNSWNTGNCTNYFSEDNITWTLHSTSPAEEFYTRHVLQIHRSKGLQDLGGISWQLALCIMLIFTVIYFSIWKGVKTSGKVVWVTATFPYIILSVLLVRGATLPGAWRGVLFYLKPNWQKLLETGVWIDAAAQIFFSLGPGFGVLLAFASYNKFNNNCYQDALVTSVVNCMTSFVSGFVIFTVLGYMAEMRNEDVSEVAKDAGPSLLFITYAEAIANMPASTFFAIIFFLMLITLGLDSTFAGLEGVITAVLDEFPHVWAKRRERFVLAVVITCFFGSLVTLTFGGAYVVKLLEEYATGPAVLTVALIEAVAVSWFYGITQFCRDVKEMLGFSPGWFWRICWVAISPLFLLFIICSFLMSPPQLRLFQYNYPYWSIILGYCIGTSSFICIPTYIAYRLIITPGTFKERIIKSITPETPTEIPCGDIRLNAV

The results in this text go back to patent publication US7696383B2 (Solvay Pharmaceuticals B.V., priority 2007, dated 2010).

SMILES strings stand for the structures.

As for `COc1ccc(C(CN(C)C)C2(O)CCCCC2)cc1` (racemic) [Venlafaxine, (R,S)-1-(2-(Dimethylamino)-1-(4-methoxyphenyl)ethyl)cyclohexanol], the IC50 was 5.01 µM in assay [3H]-dopamine reuptake and 631 nM in assay [1].

In the case of `CN(C)C[C@@H](c1ccc(O)cc1)C1(O)CCCCC1` [(R)—O-desmethyl-venlafaxine, O-desmethyl-R-Venlafaxine, reference compound], the Ki at dopamine reuptake sites was 6.31 µM; in assay [2] it was 6.31 µM; on serotonin reuptake sites it was 25.1 nM.

As to `CN(C)C[C@H](c1ccc(O)cc1)C1(O)CCCCC1` [(S)—O-desmethyl-venlafaxine, O-desmethyl-S-Venlafaxine, reference compound], the Ki at dopamine reuptake sites is 12.6 µM; in assay [2] it was 25.1 µM; at serotonin reuptake sites, 10 nM.

Consider `COc1ccc([C@H](CN(C)C)C2(O)CCCCC2)cc1` [reference compound], for which, in assay [3H]-dopamine reuptake, the IC50 is 3.16 µM.

Turning to `COc1ccc([C@@H](CN(C)C)C2(O)CCCCC2)cc1` [reference compound], the IC50 in assay [1] is 794 nM.
